Measurements from patent publication US20160022683A1, “COMBINATIONS OF BRUTON'S TYROSINE KINASE INHIBITORS AND CYP3A4 INHIBITORS” (PHARMACYCLICS LLC, priority 2013, published 2016).

Conditions: Ibrutinib in plasma

**Q.** Which λz (Day 1, 120 mg Ibrutinib alone, n=12, geom. mean) does the source give for C=CC(=O)N1CCC[C@@H](n2nc(-c3ccc(Oc4ccccc4)cc3)c3c(N)ncnc32)C1 [Ibrutinib, 1-((R)-3-(4-amino-3-(4-phenoxyphenyl)-1H-pyrazolo[3,4-d]pyrimidin-1-yl)-piperidin-1-yl)prop-2-en-1-one] here?
**A.** 0.0941 h⁻¹

**Q.** What about the λz (Day 1, 120 mg Ibrutinib alone, n=12, mean) of the same compound?
**A.** 0.112 h⁻¹

**Q.** And the λz (Day 1, 120 mg Ibrutinib alone, n=12, median)?
**A.** 0.0806 h⁻¹

**Q.** What about the λz (Day 7, 40 mg Ibrutinib + ketoconazole, geom. mean) of the same compound?
**A.** 0.116 h⁻¹

**Q.** And the λz (Day 7, 40 mg Ibrutinib + ketoconazole, mean)?
**A.** 0.124 h⁻¹

**Q.** What about the λz (Day 7, 40 mg Ibrutinib + ketoconazole, median) of the same compound?
**A.** 0.104 h⁻¹

Like-named read-outs stand apart in the source and are kept apart here.
